Source: patent US8288404B2, “Pyrrolidine GPR40 modulators” (Bristol-Myers Squibb Company, priority 2009, dated 2012)

Sequences of proteins named here, by UniProt entry; tags and fusion partners are left off.
UniProt O14842, whole entry: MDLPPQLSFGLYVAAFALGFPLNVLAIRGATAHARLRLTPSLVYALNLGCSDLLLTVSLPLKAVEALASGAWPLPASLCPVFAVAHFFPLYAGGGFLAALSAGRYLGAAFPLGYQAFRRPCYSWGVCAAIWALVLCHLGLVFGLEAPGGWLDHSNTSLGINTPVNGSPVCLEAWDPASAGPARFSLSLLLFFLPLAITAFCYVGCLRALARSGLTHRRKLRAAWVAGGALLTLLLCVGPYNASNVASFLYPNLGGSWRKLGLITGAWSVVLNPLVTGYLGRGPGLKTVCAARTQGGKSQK

Target: hGPR40 (Homo sapiens, UniProt O14842)
Assay: FDSS-Based Intracellular Calcium Assay (Human GRP40 In Vitro assay)
Details: read-out: hGPR40 EC50; cell lines expressing GPR40, intracellular Ca2+ response, FDSS reader
Procedure: FDSS-Based Intracellular Calcium Assay
Cell lines expressing GPR40 are generated using the pDEST 3xflag gene expression system and are cultured in culture medium comprising the following components: F12 (Gibco #11765), 10% lipid deprived fetal bovine serum, 250 ug/ml zeocin and 500 ug/ml G418. To conduct the fluorescent imaging plate reader (FLIPR)-based calcium flux assay to measure intracellular Ca^2+ response, cells expressing GPR40 are plated on 384 well plates (BD Biocoat #356697) at a density of 20,000 cells/20 ul medium per well in phenol red and serum-free DMEM (Gibco #21063-029) and incubated overnight. Using BD kit #s 80500-310 or -301, the cells are incubated with 20 ul per well of Hank's buffered salt solution with 1.7 mM probenecid and Fluo-3 at 37° C. for 30 minutes. Compounds are dissolved in DMSO and diluted to desired concentrations with assay buffer and added to the cells as 3× solution (20 ul per well). Run fluorescence/luminescence reader FDSS (Hamamatsu) to read intracellular Ca^2+ response.
Examples 1 to 109 disclosed below were tested in the Human GRP40 In Vitro assay described immediately above and found having hGRP40 modulating activity. Table 1 below lists hGPR40 EC50 values measured for the following examples.

Row | EC50 | SMILES
1 | 299 nM | O=C(O)C[C@@H]1CCCN1c1ccc(OCc2ccccc2-c2ccccc2)cc1
2 | 63 nM | O=C(O)C[C@@H]1CCCN1c1ccc(OCc2ccccc2OC(F)(F)F)cc1
